These results are taken from article PMC8506653 (Clinical cancer research : an official journal of the …, 2021).

In this assay the test system is cells exogenously expressing FLT3 mutants, including FLT3-ITD, FLT3-D835H, FLT3-D835Y and FLT3-ITD-D835Y. Nature of the assay: proliferation of cells exogenously expressing FLT3 mutants. The note with it: read-out: IC50, proliferation.

SMILES strings stand for the structures. pIC50: −log10 of the molar value.

On to `CCc1nc(C(N)=O)c(Nc2ccc(N3CCC(N4CCN(C)CC4)CC3)c(OC)c2)nc1NC1CCOCC1` [gilteritinib], for which the pIC50 was 8.68 to 9.04.
